# Source: patent US20250051332A1 (priority 2022, published 2025)
# Amino acid sequences for entries named in this document (tags omitted). A change or cut given only in a name is not applied to a line headed by its entry.
# UniProt P41145: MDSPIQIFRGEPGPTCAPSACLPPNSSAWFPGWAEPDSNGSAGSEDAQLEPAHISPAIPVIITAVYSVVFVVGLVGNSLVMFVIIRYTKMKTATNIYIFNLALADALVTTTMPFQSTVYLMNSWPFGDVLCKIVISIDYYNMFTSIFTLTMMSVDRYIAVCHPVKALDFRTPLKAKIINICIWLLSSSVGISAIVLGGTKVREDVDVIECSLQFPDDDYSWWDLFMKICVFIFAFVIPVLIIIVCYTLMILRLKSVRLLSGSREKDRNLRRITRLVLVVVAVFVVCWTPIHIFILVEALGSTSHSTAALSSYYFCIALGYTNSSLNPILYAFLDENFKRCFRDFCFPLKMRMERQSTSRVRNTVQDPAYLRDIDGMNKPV
# Molecular target: T1, κOR (Homo sapiens, UniProt P41145)
# T1 construct: host or cells: CHO-K1
# Type: cell-based
compound,measurement,value
"C/C=C1/CN2CC[C@]34C(=C(C(=O)OC)[C@H]1C[C@H]23)Nc1ccc(I)cc14 [Compound 3, 10-Iodoakuammicine]",κOR cAMP inhibition Emax ± SEM (%),98 ± 2%
